Results on one substance are retold here after patent US20080026998.

Where two headings read alike, the source gives them in different places.

What is called Ki is the dissociation constant of the complex between target and ligand, obtained from inhibition or displacement.

Assay [1] concerns the target plasmin (human) (UniProt P00747).
Assay [2] has the same target. This is another data set of the same source.
Assay [3] has the same target. The source holds these as a separate data set.
Assay [4] shares this target. The source holds these as a separate data set.
For assay [5] the target is unchanged. This is another data set of the same source.
For assay [6] the target is unchanged. The source holds these as a separate data set.
The target of assay [7] is trypsin.

For the substance BPTI (aprotinin) (from UniProt P00974), the Ki is 0.8 nM in assay [1]; 0.35 nM in assay [2]; 0.3 nM in assay [3]; 0.23 nM in assay [4]; 0.36 nM in assay [5]; 0.75 nM in assay [6]. The same substance gave a Ki in assay [7] of 5 nM.
